# Measured affinities in a library of Ab-14 light chain variants

Reference: Li et al. 2023, doi:10.1038/s41467-023-39022-2. File: FLAb, binding data.

Antigen: PDVDLGDISGINAS, a 14-residue peptide of the SARS-CoV-2 spike HR2 region.

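Phage display of a naive human antibody library on the peptide gave the parent. This is the validation round: designs drawn from the data on random variants, tested in the same kind of assay. Their group label is 14L_Ctrl (Ctrl: baseline library sampled from a position-specific scoring matrix, with some repeated check sequences). The scFvs were displayed on barcoded MATa yeast, the peptide on MATalpha yeast. Mating (16 h, 30 °C) was followed by selection of diploids and sequencing of their barcodes. Read counts were normalised to the haploid input and turned into Kd by a linear fit to BCL2-family pairs of known affinity, for each replicate. Mating was done six times.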

Ab-14 is the parent antibody, in scFv form: VH, then a (GGGGS)3 linker, then VL. The heavy chain is unchanged in all variants.
VH: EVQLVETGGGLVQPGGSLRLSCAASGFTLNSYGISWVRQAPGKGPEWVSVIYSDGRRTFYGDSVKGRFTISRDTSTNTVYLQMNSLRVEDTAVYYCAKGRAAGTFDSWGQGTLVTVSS
VL: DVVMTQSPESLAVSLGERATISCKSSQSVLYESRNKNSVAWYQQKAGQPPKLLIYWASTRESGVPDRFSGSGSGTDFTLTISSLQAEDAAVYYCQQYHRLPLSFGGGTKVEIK

The parent's light chain CDRs are KSSQSVLYESRNKNSVA, WASTRES, QQYHRLPLS; each variant's own CDRs replace them letter for letter.
Scale: log10 of Kd in nM, estimated from mating counts; low values are strong binders.
A pair that was not seen in that replicate is written "ND"; this usually means weak binding, but a binder can also be missed.
Nonspecific signal, from three strains lacking the peptide, appeared in 4% of pairings of all light chain designs, centred on 2.64 (5% of these signals below 1.59); values are not corrected for it. For each scFv, signals with the empty controls are counted beside the result, with their mean in brackets.

| # | CDR-L1 | CDR-L2 | CDR-L3 | replicates, log10 nM | signal with controls |
|---|---|---|---|---|---|
| 1 | KSSPSVLNESRNKHSCA | SASTRES | QQYHRLPLD | ND ND ND ND ND ND | 0 of 18 |
| 2 | KSSQSMLSESRNKNSVA | WASTRES | QQYHRLPLS | 1.48 1.87 1.65 2.10 1.49 2.25 | 1 of 18 (2.26) |
| 3 | KSSQSVLYESRNDNSVA | GASTRES | QQYHRLPLS | 0.78 0.75 0.87 0.54 0.57 0.91 | 1 of 18 (2.16) |
| 4 | KSSQSPLYESRNKNSVA | WASTRES | QQYHRLPFS | ND 3.36 ND 2.21 2.99 ND | 1 of 18 (3.11) |
| 5 | KSSQSVLYESRNKTSVA | WSSTRES | QQYHRLPLS | ND ND ND ND ND ND | 0 of 18 |
| 6 | KGSQSFPYESRNKNSVA | WASTRES | QQYHRLPLS | ND ND ND ND ND ND | 0 of 18 |
| 7 | KLSESVEYESRNKNSVA | QASTRES | QQYHRLPLS | -0.17 -0.21 -0.58 -0.65 -0.57 -0.25 | 0 of 18 |
| 8 | KLSQSVLYESRNKNSVA | WASTRES | QQYHALPLS | 0.65 0.60 0.65 0.47 0.51 0.61 | 0 of 18 |
| 9 | KSSQSSLDESRNKNSVA | MASTRES | QQYSRLPLS | -0.02 0.18 -0.41 -0.21 0.27 -0.09 | 0 of 18 |
| 10 | KSSQSVLYESRNKNSVA | HASTREH | VQYHRLPLS | ND ND ND ND ND ND | 0 of 18 |
| 11 | KSSQSVLTESRNHNSVA | YASTRES | QQYHILPLS | 1.78 1.96 0.44 1.98 1.42 1.60 | 3 of 18 (2.80) |
| 12 | KSSQSVLAESRNKNSVA | WASTRES | QQYHRLPLS | ND ND ND ND ND ND | 0 of 18 |
| 13 | KSSQSNLYESRNKNSVA | WASTRES | NQYWRLPLS | ND ND ND ND ND ND | 0 of 18 |
| 14 | KSSSSVLYISRNKNSVA | WASTRES | QQYHRLPLS | 0.76 -0.20 -0.12 1.28 0.35 0.52 | 0 of 18 |
| 15 | KSSQSVQYESHNKNSVN | WASFRES | QQYHRLPLS | 2.01 ND ND ND ND ND | 0 of 18 |
| 16 | KSSQSVLYESRNKNSVA | WASTRER | QQYHTLPLS | ND 2.96 ND 1.88 1.97 ND | 0 of 18 |
| 17 | KRSQSVLDESRNKNSVA | WASTRES | QQYHRLPLS | ND 1.70 ND ND 1.43 0.73 | 0 of 18 |
| 18 | KSSQSVLYESRAKNSVA | WASTRES | QNYHRLPLS | ND ND ND ND ND ND | 0 of 18 |
| 19 | KSSQGVLTESRNKNSVA | WASIREY | QQPHRLPLS | 2.37 1.95 ND ND ND ND | 0 of 18 |
| 20 | KSSQSVLYEDRNKNSVA | WASTREM | QQYMRLPLM | 2.05 1.72 2.27 1.25 1.60 2.28 | 2 of 18 (2.70) |
| 21 | KCSQEVLYESNNKNSVC | WASTRES | QQYMRLPLS | ND ND -0.13 ND 0.61 ND | 0 of 18 |
| 22 | KSSQSVSYESEIKNSVA | GASTRES | QQYHRLPLS | 1.41 1.26 1.22 1.21 0.16 1.51 | 0 of 18 |
| 23 | KSSQPVLYESRNKQSVA | WALTRES | QQYHRLPLG | ND ND ND ND ND ND | 0 of 18 |
| 24 | KSQQSVLYESRNHNSVA | TASTRCS | QQYHRLMLS | ND 1.79 ND ND ND ND | 1 of 18 (2.01) |
| 25 | KSSQSVLYESRNKNSVN | WADTREY | QQYHRLPLS | ND 0.93 ND 1.67 0.81 2.21 | 1 of 18 (1.29) |
| 26 | KCSNSVSYESRNKNSVA | WASTTFS | QQYPRLPLS | ND ND ND ND ND ND | 1 of 18 (1.79) |
| 27 | KSSQEVLYEGRNKNSLA | KASTRES | QQYHRLPLS | 1.11 0.49 0.64 0.70 0.98 1.15 | 0 of 18 |
| 28 | SSSQSVLYESRNKNSVA | YASTRNS | QQYHRLPLS | ND 1.93 1.84 2.21 2.58 ND | 0 of 18 |
| 29 | KCSQSVLYESRNKNSVA | GASTRES | QQYHRLPLS | -0.17 -0.05 -0.11 -0.22 0.32 0.07 | 0 of 18 |
| 30 | KSSQSVLYESRNKNSVA | YASTRFS | QQYHRLPLS | ND ND ND ND ND ND | 0 of 18 |
| 31 | KSSQSDLYESTNKNSVA | WASTRSS | QQYHRLPLS | 1.21 0.88 0.97 1.23 1.21 0.86 | 0 of 18 |
| 32 | KVKQKVLYESRNKNSVC | HASTRES | QQYHRLPLS | 1.45 0.54 1.67 0.13 1.51 0.51 | 0 of 18 |
| 33 | KSSQSVLYESRNLNSVA | SASTRES | QQYHRLPLS | 1.13 1.38 0.62 0.30 0.99 0.87 | 1 of 18 (2.87) |
| 34 | KSSQSGLYESRNKNSVA | WASTRES | QQYHRLPWS | 2.20 ND ND ND ND ND | 0 of 18 |
| 35 | KSSQSYLYESENKNSVA | WASTRES | QQYHRLLLS | ND ND ND ND ND 2.50 | 1 of 18 (1.13) |
| 36 | KSSQSVNYESRNKNSVA | WASTRES | QQYNRLPLS | ND ND 1.38 ND 1.88 ND | 0 of 18 |
| 37 | KSSQSVPYSSRNKNSVA | WASTRES | QSYHRLPLS | ND ND ND ND ND 3.27 | 0 of 18 |
| 38 | KFSESVSYESRNKNSVA | AASTRES | QSYHRLPLS | -0.15 -0.29 -0.23 -0.25 -0.31 -0.09 | 2 of 18 (1.43) |

Repeated from above, the 4 best binders with a signal in all replicates:

| CDR-L1 | CDR-L2 | CDR-L3 | replicates, log10 nM | signal with controls |
|---|---|---|---|---|
| KLSESVEYESRNKNSVA | QASTRES | QQYHRLPLS | -0.17 -0.21 -0.58 -0.65 -0.57 -0.25 | 0 of 18 |
| KFSESVSYESRNKNSVA | AASTRES | QSYHRLPLS | -0.15 -0.29 -0.23 -0.25 -0.31 -0.09 | 2 of 18 (1.43) |
| KSSQSSLDESRNKNSVA | MASTRES | QQYSRLPLS | -0.02 0.18 -0.41 -0.21 0.27 -0.09 | 0 of 18 |
| KCSQSVLYESRNKNSVA | GASTRES | QQYHRLPLS | -0.17 -0.05 -0.11 -0.22 0.32 0.07 | 0 of 18 |

In the paper, a design with two or fewer of six values counts as a poor binder.
Of ten entries with the parent sequence, four were seen in most replicates (averages 0.34 to 2.37), three in one and three in none, so single entries are noisy.
Values of this round are not directly comparable with the first-round values of the same sequences.